{"source": "patent US5292751A", "about": "“5,7-dihydroxy-2-methyl-8-(4-(3-hydroxy-1-(1-propyl))pip eridinyl)-4H-1-benzopyran-4-one, its preparation and its use” (priority 1991, dated 1994)", "key": {"[1]": {"format": "in vivo", "conditions": "rat, p.o.; LD50 over carrageenin ED50", "description": "1. Acute inflammation model:\nSystemic anti-inflammatory action on carrageenin-induced paw oedema in rats.\nMale Charles Foster rats (120-150 g) were fasted for 18 hours, with water ad libitum. The test compound suspended in Tween^R 80 and 0.5% C.M.C. was administered orally. The control group received Tween 80 and 0.5% C.M.C. 0.05 ml of 0.5% carrageenin suspension was injected subcutaneously into the plantar region of the left hind paw. Using a Maclab differential volume meter, the paw volume was determined before the carrageenin injection and 3 and 6 hours after the injection. The percentage decrease in paw volume was calculated by the following equation: [formula] The ED50 value was calculated from the dose/response curve. Six animals were used for each group."}, "in vivo": {"assay": "in vivo", "conditions": "po, rat"}}}
{"smiles": "Cc1cc(=O)c2c(O)cc(O)c(C3CCN(C)CC3O)c2o1", "note": "(centres unmarked) [Compound B]", "values": [{"measurement": "Therapeutic index (LD50 ED50)", "setting": "[1]", "result": 9.4}, {"measurement": "LD50", "setting": "in vivo", "result": 82.5, "unit": "mg/kg"}]}
